Measured values: publication PMC5185321 (Journal of medicinal chemistry, 2015)

Target: T1, 15-hydroxyprostaglandin dehydrogenase (HPGD) (Homo sapiens, UniProt P15428)
T1 sequence (P15428 1-266): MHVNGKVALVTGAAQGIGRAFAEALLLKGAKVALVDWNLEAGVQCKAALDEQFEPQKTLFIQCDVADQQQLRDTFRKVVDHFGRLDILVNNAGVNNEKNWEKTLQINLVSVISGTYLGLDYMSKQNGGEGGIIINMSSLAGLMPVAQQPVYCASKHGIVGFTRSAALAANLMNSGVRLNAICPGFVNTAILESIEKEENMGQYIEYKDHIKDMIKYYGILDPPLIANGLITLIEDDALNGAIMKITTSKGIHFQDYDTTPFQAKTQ
Test: biochemical

IC50 [µM]	Structure (SMILES)
> 57	Cc1cccc(Cn2c(OC3CCN(C(=O)C4CC4)CC3)nc3c2c(=O)n(C)c(=O)n3C)c1 [Compound 34, 8-((1-(cyclopropanecarbonyl)piperidin-4-yl)oxy)-1,3-dimethyl-7-(3-methylbenzyl)-1H-purine-2,6(3H,7H)-dione]
> 57	CCOC(=O)N1CCN(Cc2nc3c(c(=O)n(C)c(=O)n3C)n2Cc2cccc(C)c2)CC1 [Compound 5, ethyl 4-((1,3-dimethyl-7-(3-methylbenzyl)-2,6-dioxo-2,3,6,7-tetrahydro-1H-purin-8-yl)methyl)piperazine-1-carboxylate]
> 57	CNC(=O)c1ccc(Oc2nc3c(c(=O)n(C)c(=O)n3C)n2Cc2cccc(C)c2)cc1 [Compound 12, 4-((1,3-dimethyl-7-(3-methylbenzyl)-2,6-dioxo-2,3,6,7-tetrahydro-1H-purin-8-yl)oxy)-N-methylbenzamide]
